Results on one molecule are retold here after patent US5236918A, “6-aryl-3-cyanaminopyridazines, their preparation and use and medicaments containing them” (BYK Gulden Lomberg Chemische Fabrik GmbH, priority 1989, dated 1993).

Protein sequences, listed by entry. Tags and fused reporters are not part of them. Lines headed by an entry give the natural chain unless they say otherwise; changes in a name come on top.
UniProt Q14432: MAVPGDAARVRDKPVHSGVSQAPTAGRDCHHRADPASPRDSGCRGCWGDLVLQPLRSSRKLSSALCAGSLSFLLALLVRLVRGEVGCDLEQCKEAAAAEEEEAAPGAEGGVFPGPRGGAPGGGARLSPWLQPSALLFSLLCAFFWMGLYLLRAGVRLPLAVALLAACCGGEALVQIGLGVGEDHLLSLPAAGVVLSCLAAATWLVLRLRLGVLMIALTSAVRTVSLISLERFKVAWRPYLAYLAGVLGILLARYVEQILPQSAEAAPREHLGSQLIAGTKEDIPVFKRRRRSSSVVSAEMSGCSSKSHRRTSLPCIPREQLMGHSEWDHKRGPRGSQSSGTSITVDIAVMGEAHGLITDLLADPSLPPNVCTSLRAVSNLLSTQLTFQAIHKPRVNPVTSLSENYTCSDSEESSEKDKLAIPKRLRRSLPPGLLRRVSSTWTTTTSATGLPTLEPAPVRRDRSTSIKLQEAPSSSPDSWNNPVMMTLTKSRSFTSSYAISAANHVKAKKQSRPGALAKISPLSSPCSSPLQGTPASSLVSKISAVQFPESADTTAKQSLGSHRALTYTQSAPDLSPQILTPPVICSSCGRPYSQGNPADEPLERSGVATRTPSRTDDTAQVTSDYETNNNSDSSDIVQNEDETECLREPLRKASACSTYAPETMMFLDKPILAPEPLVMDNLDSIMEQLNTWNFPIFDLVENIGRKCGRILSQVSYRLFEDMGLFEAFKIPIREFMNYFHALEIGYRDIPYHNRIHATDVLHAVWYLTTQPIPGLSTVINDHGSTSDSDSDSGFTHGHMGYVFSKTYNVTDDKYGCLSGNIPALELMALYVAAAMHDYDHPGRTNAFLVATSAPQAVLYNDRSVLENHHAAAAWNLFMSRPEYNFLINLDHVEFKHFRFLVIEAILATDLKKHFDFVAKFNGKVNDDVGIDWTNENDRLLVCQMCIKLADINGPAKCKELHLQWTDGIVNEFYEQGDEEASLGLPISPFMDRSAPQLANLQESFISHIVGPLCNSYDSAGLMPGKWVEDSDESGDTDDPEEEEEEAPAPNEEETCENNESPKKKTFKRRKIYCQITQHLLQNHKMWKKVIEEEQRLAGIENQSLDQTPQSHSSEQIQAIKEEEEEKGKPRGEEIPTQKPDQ

Broadly, the IC50 is the concentration at which inhibition is half-maximal. Higher therefore signals weaker potency.

The target in the experiment is T1, PDE III (Homo sapiens, UniProt Q14432).
T1 construct: PDE III isolated from human platelets; from tissue; host or cells: human platelets
In words: inhibition of PDE III isolated from human platelets. It is filed as biochemical. The source says: The inhibition of phosphodiesterases of classes III (PDE III=high-affinity cAMP-PDE which can be inhibited by cGMP) and IV (PDE IV=high-affinity cAMP-PDE which cannot be inhibited by cGMP, Rolipram-sensitive) is regarded as being particularly conclusive for a bronchospasmolytic and/or antiinflammatory action which may be expected [H. Hidaka et al., Adv. Cycl. Nucl. Res. 13, 145 (1984); Tips 5, 237 (1984); R. Weishaar et al., J. Med. Chem. 28, 537 (1985); S. A. Harrison et al., Molec. Pharmac. 29, 506 (1986); J. Klein-Tebbe et al., Allergologie 12, 12 (1989); C. Schudt et al., Allergologie 12, 12 (1989)].
The PDE inhibition of the compounds according to the invention was therefore determined on a PDE III isolated from human platelets and PDE IV isolated from human neutrophilic polymorphonuclear cells (PMNs) and from the canine trachea. The phosphodiesterases III and IV are isolated by chromatography by the method of Polson et al., Biochem. Pharmacol. 31, 3403-3406 (1982).
The substances are dissolved in DMSO and diluted further. From a series of solutions diluted up to a hundred-fold, 2.1 μl portions are taken and 212 μl reaction mixture are added. […]
The reaction is started by addition of 10 μl PDE to the reaction mixture and to the substance batch. […] The adenosine formed remains in the supernatant after centrifugation and can be measured in an aliquot by the radioactivity contained therein.

`Cn1c(=O)c2[nH]cnc2n(C)c1=O` [Theophylline, theophylline, reference compound] had an IC50 of 162 µM.
